Assays:
[1] = biological target: T1, Replicase polyprotein 1ab (Severe acute respiratory syndrome coronavirus 2, UniProt P0DTD1); test: Inhibition of eGFP fused SARS-CoV2 main protease transfected in HEK293T/17 cells incubated for 72 hrs by fluorescence based flow cytometry analysis; format: cell-based
[2] = biological target: T1, Replicase polyprotein 1ab; test: Inhibition of His/SUMO tagged SARS-CoV2 main protease expressed in Escherichia coli BL21 (DE3) cells using DABCYL-Lys-Thr-Ser-Ala-Val-Leu-Gln-Ser-Gly-Phe-Arg-Lys-Met-Glu-EDANS as fluorogenic substrate preincubated for 30 mins followed by substrate addition and measured after 30 mins by fluorescence plate reader analysis

Row | SMILES | EC50 [1] | IC50 [2]
1 | C[C@@H](OC(C)(C)C)[C@H](NC(=O)OCc1ccccc1)C(=O)N1C[C@H]2[C@@H]([C@H]1C(=O)N[C@H](C=O)C[C@@H]1CCNC1=O)C2(C)C | 140 nM | 
2 | CC(C)(C)[C@H](NC(=O)OCc1ccccc1)C(=O)N1C[C@H]2[C@@H]([C@H]1C(=O)N[C@H](C=O)C[C@@H]1CCNC1=O)C2(C)C | 310 nM | 
3 | CC(C)(C)NC(=O)N[C@H](C(=O)N1CC2(CC2)C[C@H]1C(=O)N[C@H](C=O)C[C@@H]1CCNC1=O)C(C)(C)C |  | 23 nM
4 | CC(C)(C)CC(=O)N[C@H](C(=O)N1C[C@H]2[C@@H]([C@H]1C(=O)N[C@@H](C[C@@H]1CCNC1=O)C(=O)C(N)=O)C2(C)C)C(C)(C)C | 7700 nM | 150 nM
5 | CC(C)(C)C[C@H](NC(=O)[C@@H](NC(=O)NC(C)(C)C)C(C)(C)C)C(=O)N[C@H](C=O)C[C@@H]1CCNC1=O |  | 17 nM
6 | C[C@@H](OC(C)(C)C)[C@H](NC(=O)NC(C)(C)C)C(=O)N[C@@H](CC1CCCCC1)C(=O)N[C@H](C=O)C[C@@H]1CCNC1=O | 740 nM | 

From ChEMBL document CHEMBL5113496, “A systematic exploration of boceprevir-based main protease inhibitors as SARS-CoV-2 antivirals” (Eur J Med Chem, 2022)
